{"source": "ChEMBL document CHEMBL5532639", "about": "“Heterocyclic pyrimidine derivatives as promising antibacterial agents” (Eur J Med Chem, 2023)", "key": {"Escherichia coli [1]": {"tested_on": "Escherichia coli", "assay": "Antibacterial activity against Escherichia coli", "format": "functional"}, "Staphylococcus aureus": {"tested_on": "Staphylococcus aureus", "settings": "ATCC 25923, time 24.0 hrs"}, "Escherichia coli [2]": {"tested_on": "Escherichia coli", "settings": "ATCC 25922, time 24.0 hrs"}}}
{"sequence": "GENTAMICIN", "values": [{"measurement": "MIC", "setting": "Escherichia coli [1]", "result": 0.49, "unit": "µg/mL"}, {"measurement": "MIC", "setting": "Staphylococcus aureus", "result": 0.5, "unit": "µg/mL"}, {"measurement": "MIC", "setting": "Escherichia coli [2]", "result": 0.5, "unit": "µg/mL"}]}
